# Literature values, collected in publication PMC10088252.
# System: NSCLC with MET exon 14 skipping mutation
# Set-up: method as in PMID 32469185
# Settings: cited from earlier work
# [1] = NSCLC patients with MET exon 14 skipping mutation
compound,measurement,setting,value
CN1CCC(COc2cnc(-c3cccc(Cn4nc(-c5cccc(C#N)c5)ccc4=O)c3)nc2)CC1 [tepotinib],ORR,11 patients with MET exon 14 skipping mutation and brain metastases,55%
same,ORR,[1],46%
same,median duration of response (DoR),[1],11.1 months
same,grade ≥ 3 TEAE peripheral edema,,7%
same,"grade ≥ 3 TEAEs, patients",,28%
same,patients who discontinued treatment due to TRAEs,,11%
same,ORR,"investigator assessed, previously treated or untreated",56%

# Like-named read-outs stand apart in the source and are kept apart here.
